# Experimental data published in patent US8829203B2, “3′,6-substituted indirubins and their biological applications” (Centre National de la Recherche Scientifique (CNRS), priority 2008, dated 2014).
# Test system: SH-SY5Y neuroblastoma cells
# Experiment: cells
# Conditions: Homo sapiens, 48 h, read-out: SH-SY5Y cell survival IC50, 48 h incubation, MTS reduction
structure (smiles),measurement,value
COCCN1CCN(CCO/N=C2/C(=C3/C(=O)Nc4cc(Br)ccc43)Nc3ccccc32)CC1 [Cpd 14],IC50,> 100 µM
